# Source: EP4834351A1, “PHARMACEUTICAL COMPOSITION COMPRISING ENAVOGLIFLOZIN AS ACTIVE INGREDIENT FOR PREVENTING OR TREATING ALOPECIA AREATA” (dated 2026)
# What was measured:
# [1] = system: alopecia areata mouse model; test: Disease-free ratio in alopecia areata mouse model (lymph node cell injection method); conditions: cell also prints n/N
# Method: (§1) An 8-week-old C3H/Hej female mouse was obtained, sufficiently supplied with solid feed (without antibiotics) and water until an experiment day, adapted in an environment of a temperature of 23±2°C, humidity of 55±10%, and a 12-hours light-dark cycle, and then used in an experiment.
# (§2) An alopecia areata model was manufactured using a lymph node cell injection method. A lymph node cell was isolated from a mouse (donor) in which alopecia areata occurred, proliferated using Dynabead Mouse T-activator CD3/CD28, Human Recombinant IL-2, Mouse Recombinant IL-7, and Mouse Recombinant IL-15, and then injected into a C3H/Hej mouse (recipient) of 10 weeks of age or older by 1.5x10^7 cells/mouse intra-dermal injection to manufacture an alopecia areata model.
# (§3) In order to evaluate alopecia areata efficacy of enavogliflozin in an alopecia areata mouse model manufactured by a lymph node cell injection method, a test group was set and evaluated as shown in Table 1 below.
# As a test substance, enavogliflozin 0.1 mg/kg and 1 mg/kg were used. A vehicle group was prepared in 0.5% Carboxymethyl cellulose sodium salt with 1% Tween80, stored at 4°C, and used.
# At 4 weeks after injecting a lymph node cell into a mouse, upon visual confirmation of alopecia areata, individuals were selected and divided into groups, and administration of a test substance was started.
# An administration period of a test substance is 12 weeks, and a vehicle group and an enavogliflozin group were orally administered (P.O. injection) once every day (QD).
# Prism 10.0 software (GraphPad Software Inc., San Diego, CA, USA) was used for statistical analysis of data. Experimental results were expressed as mean±standard error of the mean (SEM). As a statistical method, a one-way analysis of variance (One-way ANOVA) was performed to verify a difference between each group, and a post hoc test for each type used a verification method through a Tukey function (Tukey's test) or Dunn's multiple comparison verification method (Dunn's multiple comparison test). A significance level was set to p<0.05.
# [2] = system: alopecia areata mouse model; test: AA lesion size in alopecia areata mouse model; conditions: 12 weeks of final administration, compared to vehicle group
# Method: as §1, §2
# In order to evaluate alopecia areata efficacy of enavogliflozin in an alopecia areata mouse model manufactured by a lymph node cell injection method, a test group was set and evaluated as shown in Table 1 below. […]
# A size of alopecia areata was photographed once every 2 weeks using a digital camera (DSLR), and a ratio of an area where a symptom occurred to a total area of an individual was expressed as % by image J (National Institutes of Health). […]
# (§4) Prism 10.0 software (GraphPad Software Inc., San Diego, CA, USA) was used for statistical analysis of data. Experimental results were expressed as mean±standard error of the mean (SEM). […]
# [3] = Plasma BHB concentration in alopecia areata mouse model; conditions: enavogliflozin 1 mg/kg; after 12 weeks, 24 hours fasting; no statistical significance compared to vehicle group
# Method: as §1, §2, §3
# An administration period of a test substance is 12 weeks, and a vehicle group and an enavogliflozin group were orally administered (P.O. injection) once every day (QD). […]
# as §4
# [4] = system: NLRP3; test: Histological analysis (staining) of skin, NLRP3; conditions: enavogliflozin 1 mg/kg; 12 weeks; compared to vehicle group
# Excerpt: (§5) At 12 weeks, which is a time point of completion of test substance administration, skin was excised and then fixed in a 10% formalin solution. After manufacturing a paraffin block, a tissue was cut to manufacture a slide, and then stained using an ImmPRESS Anti-Rabbit Ig Kit (Catalog No. MP-7401) or an ImmPRESS Anti-Rat Ig Kit (Catalog No. MP-7404). As a primary antibody, NLRP3 (768319, Invitrogen, CA, USA), caspase1 (Ab138483, Abcam, Cambridge, UK), ASC (NBP1-78977, Novusbio, CO, USA), and IL-1β (AF5103, Affinity biosciences, OH, USA) were used. For reading of a tissue, a tissue slide was photographed at 100 magnification using an optical microscope (PANORAMIC MIDI II), and then an expression level of each slide was read using Case Viewer software.
# [5] = system: Caspase-1; test: Histological analysis (staining) of skin, Caspase-1; conditions: enavogliflozin 1 mg/kg; 12 weeks; compared to vehicle group
# Excerpt: as §5
# [6] = system: ASC; test: Histological analysis (staining) of skin, ASC; conditions: enavogliflozin 1 mg/kg; 12 weeks; compared to vehicle group
# Excerpt: as §5
# [7] = system: IL-1β; test: Histological analysis (staining) of skin, IL-1β; conditions: enavogliflozin 1 mg/kg; 12 weeks; compared to vehicle group
# Excerpt: as §5
# [8] = system: NLRP3; test: Inflammatory factor protein expression (SDS-PAGE / immunoblot), NLRP3; conditions: enavogliflozin 0.1 and 1 mg/kg treated groups; 12 weeks; skin lysate; compared to vehicle group
# Method: (§6) At 12 weeks, which is a time point of completion of test substance administration, skin was excised and lysed, and then a protein concentration was measured using a BCA protein assay kit (Bio-Rad, Hercules, CA, USA). A protein (20 µg) was separated by SDS-PAGE (polyacrylamide gel electrophoresis) and adsorbed onto a PVDF (polyvinylidene fluoride) membrane (Millipore Corp, Bedford, MA). A membrane was reacted in PBS containing 0.1% Tween-20 and 5% skim milk (non-fat milk), and reacted using a primary antibody diluted with 0.2% BSA (in PBS). After washing 3 times, a membrane was reacted with an HRP-conjugated secondary antibody (anti-rabbit IgG antibody (PI-1000) or anti-mouse IgG antibody (PI-2000), Vector Labs Inc., Burlingame, CA, USA), and a band was visualized with an ECL advance kit (ATTO, Tokyo, Japan).
# (§7) Prism 10.0 software (GraphPad Software Inc., San Diego, CA, USA) was used for statistical analysis of data. Experimental results were expressed as mean±standard error of the mean (SEM). As a statistical method, a one-way analysis of variance (One-way ANOVA) was performed to verify a difference between each group, and a post hoc test for each type used a verification method through a Tukey function or Dunn's multiple comparison verification method. A significance level was set to p<0.05.
# [9] = system: Caspase-1; test: Inflammatory factor protein expression (SDS-PAGE / immunoblot), Caspase-1; conditions: enavogliflozin 0.1 and 1 mg/kg treated groups; 12 weeks; skin lysate; compared to vehicle group
# Method: as §6, §7
# [10] = system: ASC; test: Inflammatory factor protein expression (SDS-PAGE / immunoblot), ASC; conditions: enavogliflozin 0.1 and 1 mg/kg treated groups; 12 weeks; skin lysate; compared to vehicle group
# Method: as §6, §7
# [11] = system: IL-1β; test: Inflammatory factor protein expression (SDS-PAGE / immunoblot), IL-1β; conditions: enavogliflozin 0.1 and 1 mg/kg treated groups; 12 weeks; skin lysate; compared to vehicle group
# Method: as §6, §7
# [12] = system: pathogenic cell (CD44s-hi); test: Flow cytometry analysis of lymph node, pathogenic cell ratio; conditions: enavogliflozin-administered group compared to vehicle group; completion of test
# Method: (§8) Skin-Draining Lymph Node cells of a mouse obtained at a time point of completion of a test were taken out of a nitrogen tank and used for flow cytometry analysis. Cells were analyzed by staining antibodies of L/D, CD3, CD4, CD8, CD44, CD49d, CD62L, and NKG2D without additional stimulation. A cell surface protein was quantitatively analyzed for stained cells using a FACSymphony A1 (Becton, Dickinson and Company, BD) apparatus. Thereafter, MFI and a positive cell population were confirmed using FlowJo (Becton, Dickinson and Company, BD, v. 10.0).
# (§9) Experimental results were expressed as mean±standard error of the mean (SEM). GraphPad Prism version 7 software was used to confirm statistical significance. Significance verification of flow cytometry data used a Mann-Whitney test, and it was considered statistically significant when a p value was 0.05 or less.
# [13] = system: NKG2D; test: Flow cytometry analysis of lymph node, NKG2D MFI in pathogenic cell; conditions: enavogliflozin 1 mg/kg; completion of test; compared to vehicle group
# Method: as §8, §9
# [14] = Dissolution test (Korean Pharmacopoeia Dissolution Test Method 2, Paddle Method); conditions: average particle size of enavogliflozin exceeds 15 um, dissolution medium 1.2
# Method: Since a dissolution rate of an active ingredient in a pharmaceutical composition affects a maximum blood concentration (Cmax) and an area under a blood concentration-time curve (AUC) upon drug administration, conversely speaking, it is important to adjust a dissolution rate of a pharmaceutical composition to implement an appropriate Cmax and AUC. Since enavogliflozin has a Tmax of 1 to 2 hours, a drug absorption rate in the stomach is judged to be important. The dissolution rate is measured under a condition of a dissolution medium 1.2 by a Korean Pharmacopoeia Dissolution Test Method 2 (Paddle Method). Specific conditions may refer to the following experimental examples.
smiles,measurement,setting,value
OC[C@H]1O[C@@H](c2cc(Cc3ccc(C4CC4)cc3)c(Cl)c3c2CCO3)[C@H](O)[C@@H](O)[C@@H]1O,Disease-free ratio,"[1]; ENA 0.1 mg/kg PO QD, week 0 of administration",3/6 (50%)
same,Disease-free ratio,"[1]; ENA 0.1 mg/kg PO QD, week 2",2/6 (33.3%)
same,Disease-free ratio,"[1]; ENA 0.1 mg/kg PO QD, week 3",2/6 (33.3%)
same,Disease-free ratio,"[1]; ENA 0.1 mg/kg PO QD, week 4",1/6 (16.7%)
same,Disease-free ratio,"[1]; ENA 0.1 mg/kg PO QD, week 5",1/6 (16.7%)
same,Disease-free ratio,"[1]; ENA 0.1 mg/kg PO QD, week 8",1/5 (20%)
same,Disease-free ratio,"[1]; ENA 0.1 mg/kg PO QD, week 10",1/5 (20%)
same,Disease-free ratio,"[1]; ENA 0.1 mg/kg PO QD, week 12",1/5 (20%)
same,Disease-free ratio,"[1]; ENA 1 mg/kg PO QD, week 0 of administration",3/6 (50%)
same,Disease-free ratio,"[1]; ENA 1 mg/kg PO QD, week 2",2/6 (33.3%)
same,Disease-free ratio,"[1]; ENA 1 mg/kg PO QD, week 3",3/6 (50%)
same,Disease-free ratio,"[1]; ENA 1 mg/kg PO QD, week 4",3/6 (50%)
same,Disease-free ratio,"[1]; ENA 1 mg/kg PO QD, week 5",3/6 (50%)
same,Disease-free ratio,"[1]; ENA 1 mg/kg PO QD, week 8",2/6 (33.3%)
same,Disease-free ratio,"[1]; ENA 1 mg/kg PO QD, week 10",2/6 (33.3%)
same,Disease-free ratio,"[1]; ENA 1 mg/kg PO QD, week 12",1/6 (16.7%)
same,size in which alopecia areata occurred,[2]; enavogliflozin 0.1 mg/kg PO QD,size in which alopecia areata occurred was small
same,size in which alopecia areata occurred,[2]; enavogliflozin 1 mg/kg PO QD,significant difference was shown compared to the vehicle group
same,plasma BHB concentration,[3],trend of increasing
same,expression of NLRP3 in skin (staining),[4],decreased
same,expression of Caspase-1 in skin (staining),[5],decreased
same,expression of ASC in skin (staining),[6],decreased
same,expression of IL-1β in skin (staining),[7],decreased
same,NLRP3 protein expression,[8],significantly decreased in a dose-dependent manner
same,Caspase-1 protein expression,[9],significantly decreased in a dose-dependent manner
same,ASC protein expression,[10],significantly decreased in a dose-dependent manner
same,IL-1β protein expression,[11],significantly decreased in a dose-dependent manner
same,ratio of a pathogenic cell (CD44s-hi) in a lymph node cell,[12],did not show a significant ratio decrease
same,MFI value of NKG2D in a pathogenic cell,[13],significant decrease
same,5-minute dissolution rate,[14]; % of total content of enavogliflozin,less than 40%
same,30-minute dissolution rate,[14],less than 80%
